In article PMC3392217, “BmK-YA, an Enkephalin-Like Peptide in Scorpion Venom” (PLoS ONE, 2012) one finds EC50 data, which are given here for one compound.

Sequences of proteins named here, by UniProt entry; tags and fusion partners are left off. A change or cut given only in a name is not applied to a line headed by its entry.
UniProt P41145: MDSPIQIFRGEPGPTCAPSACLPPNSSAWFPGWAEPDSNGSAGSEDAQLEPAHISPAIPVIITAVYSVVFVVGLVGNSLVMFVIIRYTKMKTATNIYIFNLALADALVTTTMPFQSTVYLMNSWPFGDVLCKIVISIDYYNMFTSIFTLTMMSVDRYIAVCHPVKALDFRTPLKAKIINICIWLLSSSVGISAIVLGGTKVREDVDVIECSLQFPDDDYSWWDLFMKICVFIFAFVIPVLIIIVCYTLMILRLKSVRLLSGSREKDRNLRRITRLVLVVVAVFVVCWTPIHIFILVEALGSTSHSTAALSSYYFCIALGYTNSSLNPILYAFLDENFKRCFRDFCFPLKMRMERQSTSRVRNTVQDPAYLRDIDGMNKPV
UniProt P35372, whole entry: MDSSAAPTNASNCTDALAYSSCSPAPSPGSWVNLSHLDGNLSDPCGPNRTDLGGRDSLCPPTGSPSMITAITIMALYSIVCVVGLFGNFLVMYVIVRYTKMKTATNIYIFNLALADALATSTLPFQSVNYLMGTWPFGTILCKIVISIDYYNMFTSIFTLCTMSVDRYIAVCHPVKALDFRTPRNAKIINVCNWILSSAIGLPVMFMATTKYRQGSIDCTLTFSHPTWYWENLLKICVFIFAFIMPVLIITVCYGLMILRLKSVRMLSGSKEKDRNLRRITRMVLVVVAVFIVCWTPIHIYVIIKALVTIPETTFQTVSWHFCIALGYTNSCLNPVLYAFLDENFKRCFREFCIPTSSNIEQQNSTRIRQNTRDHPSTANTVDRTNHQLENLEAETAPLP

Holding throughout (assay type): cell-based
One test concerns the target human opioid receptor δ (Homo sapiens, UniProt P41143). Briefly: Ca2+ response monitored by FLIPR, δ-expressing cells. Set-up: expressed in transfected cells. Particulars: δ-expressing HEK293T cells, Gqαi3 cotransfected, Fluo-4 AM, mean±SE, n = 3, read-out: EC50 (intracellular Ca2+ mobilization). (In general: A change in cytosolic calcium serves as a functional read-out for many receptors and channels.)

Another test concerns the target T1, human opioid receptor κ (Homo sapiens, UniProt P41145).
T1 construct: expressed in transfected cells
Briefly: Ca2+ response monitored by FLIPR, κ-expressing cells. Particulars: κ-expressing HEK293T cells, Gqαi3 cotransfected, Fluo-4 AM, mean±SE, n = 3, read-out: EC50 (intracellular Ca2+ mobilization).

In a further test the target is T2, human opioid receptor μ (Homo sapiens, UniProt P35372).
T2 construct: expressed in transfected cells
Description: Ca2+ response monitored by FLIPR, μ-expressing cells. Particulars: μ-expressing HEK293T cells, Gqαi3 cotransfected, Fluo-4 AM, mean±SE, n = 3, read-out: EC50 (intracellular Ca2+ mobilization).

The term EC50 denotes the concentration at which the effect is half-maximal. For the compound `CSCC[C@H](NC(=O)[C@H](Cc1ccccc1)NC(=O)CNC(=O)CNC(=O)[C@@H](N)Cc1ccc(O)cc1)C(=O)N[C@@H](CC(N)=O)C(=O)N1CCC[C@H]1C(=O)N[C@@H](C)C(=O)O` [Phe^4-BmK-YA], the EC50 was 60 nM at human opioid receptor δ, 77 nM on human opioid receptor κ and 157 nM at human opioid receptor μ.
